Literature values as cited in US20140004170A1, “COATING OF A DRUG-ELUTING MEDICAL DEVICE” (CAPSULUTION PHARMA AG, priority 2010, published 2014).
Like-named read-outs stand apart in the source and are kept apart here.

Conditions: pH at which the amphoteric substance has no net charge

Serum Albumin: Amphoteric polyelectrolyte, 66 kDa
IEP (positive below, negative above): positive < IEP 4.7 > negative
IEP (positive below, negative above) (listed as Albumin): Albumin (IEP ca. 4.6-4.7)
